In patent publication US20150080462A1, “COMPOSITIONS AND METHODS FOR THE TREATMENT OR PREVENTION OF DISORDERS RELATING TO OXIDATIVE STRESS” (THE JOHNS HOPKINS UNIVERSITY, priority 2005, published 2015):

What was measured:
TNF-α, IL-1β and IL-6 = experiment: Real time PCR of proinflammatory genes in lungs after non-lethal LPS challenge, NAC pretreatment; format: in vivo; details: nrf2−/− mice, NAC 500 mg/kg ip three doses, 30 min after LPS ip 60 μg per mouse
nrf2−/− mice = experiment: BAL fluid analysis after non-lethal LPS challenge, NAC pretreatment; format: in vivo; details: NAC 500 mg/kg ip three doses, 6 h after LPS ip 60 μg per mouse

CC(=O)N[C@@H](CS)C(=O)O [NAC, N-acetyl L-cysteine]
transcript levels of TNF-α, IL-1β and IL-6 in the lungs (TNF-α, IL-1β and IL-6): significantly reduced | influx of inflammatory cells (BAL fluid) (nrf2−/− mice): significantly reduced
